# Values quoted from earlier work as cited in patent US20080206881A1, “DIAGNOSTIC MARKER FOR NEURODEGENERATIVE DISEASES” (priority 2007, published 2008).
# Test system: ALS patients
# Details: cited from earlier work
structure (smiles),measurement,value
"Nc1nc2ccc(OC(F)(F)F)cc2s1 [RILUZOLE®, 2-amino-6-(trifluoromethoxxy)benzothiazole]",survival in clinical trials,marginally prolonged survival
